The test system of assay [1] is Phosphorylation of STAT6 in human PBMC (CD19+ B cells). The assay can be described thus: Phosphorylated STAT6 (pSTAT6) flow cytometry assay in human PBMC, IL-4 stimulated. The following applies: read-out: STAT6 IL4 pSTAT6 assay in PBMC: Average IC50, compound 1 hour, 1 ng/ml IL-4 for 15 minutes. The protocol: Example 2. Phosphorylated STAT6 (pSTAT6) Flow Cytometry Assay in Human PBMC
Phosphorylation of STAT6 in human PBMC was quantitatively measured using flow cytometry technology. Human PBMC were seeded in 96-well plates with a density of 0.3 to 0.5 million cells per well in 100 μl fresh media. Compounds were then added to the assay plates with a final top concentration of up to 30 μM in a 1:3 dilution series with total of 9 doses. The assay plates were incubated for 1 hour at 37° C. under 5% CO2. The cells were then stimulated with 1 ng/ml of IL-4 (R&D Systems, Cat #6507-IL) for 15 minutes, followed by fixation for 30 minutes at 4° C. Cells were spun down at 350 g for 5 minutes. The supernatant was removed and cells were washed once with FACS buffer. Cells were permeabilized with 90% MeOH/H2O for 30 minutes at 4° C., followed by one wash with FACS buffer. Non-specific binding were blocked with human Fc for 1 hour at 4 C, followed by one wash with FACS buffer. AF488 conjugated pSTAT6 antibody (BD Biosciences, Cat #612600, 1:100 dilution) and PE conjugated CD19 antibody (BD Biosciences, Cat #341103, 1:50 dilution) diluted in 100 μl FACS buffer was added to each well with overnight incubation at 4° C. Cells were then washed once with FACS buffer and resuspended in 200 μl of FACS buffer for flow cytometry to quantify pSTAT6 in CD19+ B cells. The data was analyzed by GraphPad Prism and the dose dependent pSTAT6 inhibition was fit using the four-parameter inhibitor vs. response nonlinear regression.
For orientation: In flow cytometry, cells or beads pass a laser one at a time.

By UniProt entry, the sequences of proteins in these tests, tags left out. Residues count along the entry.
UniProt P42226, 123-632 limits assumed: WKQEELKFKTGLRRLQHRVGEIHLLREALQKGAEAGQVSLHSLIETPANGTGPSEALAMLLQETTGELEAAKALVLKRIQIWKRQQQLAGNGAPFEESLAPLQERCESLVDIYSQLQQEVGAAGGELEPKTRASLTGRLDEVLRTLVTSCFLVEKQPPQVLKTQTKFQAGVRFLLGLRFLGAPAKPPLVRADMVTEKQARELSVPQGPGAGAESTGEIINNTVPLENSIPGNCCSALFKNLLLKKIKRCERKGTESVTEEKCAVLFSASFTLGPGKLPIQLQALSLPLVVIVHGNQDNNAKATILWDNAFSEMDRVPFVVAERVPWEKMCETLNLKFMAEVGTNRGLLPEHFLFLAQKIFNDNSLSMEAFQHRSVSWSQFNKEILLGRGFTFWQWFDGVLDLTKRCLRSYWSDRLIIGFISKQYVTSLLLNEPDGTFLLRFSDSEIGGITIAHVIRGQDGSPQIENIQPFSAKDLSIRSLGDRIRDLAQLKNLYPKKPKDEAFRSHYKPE

The target in assay [2] is biotinylated truncated STAT6 (123-632)-avi (Homo sapiens, UniProt P42226). Put plainly: Homogenous Time-Resolved Fluorescence (HTRF) binding assay. The following applies: read-out: STAT6 HTRF: Average IC50; 0.15 nM biotinylated truncated STAT6 (123-632)-avi, 20 nM fluorescein-labeled probe, 30 minutes at room temperature. As to the method:
Example 1. Homogenous Time-Resolved Fluorescence (HTRF) Binding Assay
HTRF binding assays were performed using 0.15 nM biotinylated truncated STAT6 (123-632)-avi purified from E. coli, 1× Streptavidin-terbium (CisBio) prepared by mixing SA-Tb in PPI detection buffer (CisBio), 20 nM proprietary fluorescein-labeled probe, and test compounds in assay buffer consisting of 50 mM HEPES-Na pH 7.5, 100 mM NaCl, 1 mM EDTA, 2 mM DTT, 0.1% Tween-20 with a final volume of 20 uL. Compound stocks were dissolved at 10 mM in 100% DMSO and 11 point titration with 3 fold serial dilution was performed in white, opaque 384 well microplates. Reaction plates were incubated at room temperature for 30 minutes. Plates were centrifuged at low rpm for 5 mins, and the ratio of fluorescence intensities were measured at emission wavelengths for fluorescein acceptor (520 nm) and terbium donor (495 nm) on Envision Plate reader. % Inhibition was calculated from the 520/495 ratio generated by using proprietary positive control compound for 100% inhibition and DMSO only reactions for 0% inhibition. Data was processed and dose response curves were generated using GraphPad Prism to determine the concentration required for inhibiting 50% of the HTRF signal (IC50).
On the technique in general: TR-FRET usually uses a lanthanide donor and a delayed reading to cut background.

Assay [3] relates to Phosphorylation of STAT6 in human A549 cells. Put plainly: Phosphorylated STAT6 (pSTAT6) flow cytometry assay in human A549 cells. To be noted: read-out: STAT6 IL4 pSTAT6 assay in A549 cells: Average IC50. An excerpt: Example 3. Phosphorylated STAT6 (pSTAT6) Flow Cytometry Assay in Human A549 Cells
Phosphorylation of STAT6 in human A549 cells was quantitatively measured using flow cytometry technology.

Some results are limits rather than exact numbers.

Consider `CN(C)C(=O)c1cc2cc(C3=CCCN(C(=O)[C@H]4Cc5c(cccc5N5CCNCC5)CN4C=O)C3)ccc2o1` (single isomer, unassigned), for which the figures for the IC50 in assay [1] and in assay [2] were more than 100 µM and 10 to 100 µM, respectively.

Turning to `CN(C)C(=O)c1cc2ccc(C3=CCCN(C(=O)C4Cc5ccccc5CN4C)C3)cc2[nH]1` (centres unmarked), the IC50 is more than 100 µM in assay [1] and 10 to 100 µM in assay [2].

In the case of `Cc1ccc(S(=O)(=O)N[C@@H](C)C(=O)N2CCC=C(c3ccc4cc(C(=O)N(C)C)[nH]c4c3)C2)cc1`, the IC50 in assay [1] is more than 100 µM; in assay [2], 10 to 100 µM.

As to `CN(C)C(=O)c1cc2cc(C3CC[C@H](CO)N(C(=O)CCn4ccnn4)C3)ccc2o1` (some centres unmarked), the IC50 in assay [1] and in assay [2] was more than 100 µM each time.

For `CN(C)C(=O)c1cc2ccc(C3=CCCN(C(=O)[C@@H](CO)c4ccccc4)C3)cc2[nH]1` (single isomer, unassigned), the IC50 is more than 100 µM in assay [1] and 10 to 100 µM in assay [2].

For the compound `CN(C)C(=O)c1cc2cc(C3=CCCN(C(=O)CCn4ccnn4)C3)ccn2n1`, the IC50 in assay [1] was 10 to 100 µM; in assay [2], 1 to 10 µM.

As for `CN(C)C(=O)c1cc2cc(C3=CCCN(C(=O)Cc4ccc5c(c4)CNCC5)C3)ccc2o1`, the figures for the IC50 in assay [1] and in assay [2] were more than 100 µM and 10 to 100 µM, respectively.

Take `CCC12CC(C(=O)N3CCC=C(c4ccc5cc(C(=O)N(C)C)[nH]c5c4)C3)(C1)C2`: the IC50 was more than 100 µM in assay [1] and 10 to 100 µM in assay [2].

Regarding `CN(C)C(=O)c1cc2ccc(C3=CCCN(C(=O)[C@@H]4CC[C@H](C(=O)O)C4)C3)cc2[nH]1`, the IC50 in assay [1] and in assay [2] was 10 to 100 µM each time.

As to `CN(C)C(=O)c1cc2ccc(C3=CCCN(C(=O)c4cc(-c5ccccc5)n5ccccc45)C3)cc2[nH]1`, the figures for the IC50 in assay [1] and in assay [2] were more than 100 µM and 10 to 100 µM, respectively.

Regarding `CN(C)C(=O)c1cc2ccc(C3=CCCN(C(=O)Cn4ncccc4=O)C3)cc2[nH]1`, the IC50 in assay [1] was more than 100 µM; in assay [2] it was 10 to 100 µM.

With `CO[C@H](C(=O)N1CCC=C(c2ccc3cc(C(=O)N(C)C)[nH]c3c2)C1)c1ccccc1` (single isomer, unassigned), the IC50 in assay [1] is more than 100 µM; in assay [2] it was 10 to 100 µM.

Turning to `CN(C)C(=O)c1cc2cc(C3CC[C@@H](CO)N(C(=O)CCn4ccnn4)C3)ccc2o1` (some centres unmarked), the IC50 in assay [1] and in assay [2] was more than 100 µM throughout.

As to `CN(C)C(=O)c1cc2cc(C3CCN(C(=O)CCn4ccnn4)CC3)ccc2o1`, the IC50 in assay [1] was more than 100 µM; in assay [2], 10 to 100 µM.

Turning to `CN(C)C(=O)c1cc2ccc(C3=CCCN(C(=O)C45CC(C4)C5)C3)cc2[nH]1`, the IC50 in assay [1] was more than 100 µM; in assay [2], 10 to 100 µM.

Consider `CN(C)C(=O)c1cc2ccc(C3=CCCN(C(=O)CCn4cccnc4=O)C3)cc2[nH]1`, for which the IC50 in assay [1] lay within 10 to 100 µM; in assay [2], 0.1 to 1 µM.

As to `COc1cc2[nH]ccc2cc1-c1cc(C2=CCCN(C(=O)CCn3ccnn3)C2)cc2[nH]c(C(=O)N(C)C)cc12`, the IC50 in assay [3] and in assay [2] was less than 0.1 µM throughout.

Regarding `COc1cc(F)cnc1N1CCN(C(=O)c2cc3c(-c4cccc5ccncc45)cc(C4=CCCN(C(=O)CCn5ccnn5)C4)c(F)c3[nH]2)CC1`, the IC50 in assay [3] and in assay [2] was less than 0.1 µM throughout.

In the case of `CCn1ncc2c1CN(C(=O)c1cc3c(-c4ccnn4C)cc(C4=CCCN(C(=O)CCn5ccnn5)C4)c(F)c3[nH]1)C2`, the IC50 in assay [3] and in assay [2] was less than 0.1 µM each time.

For the compound `CCn1nccc1-c1cc(C2=CCCN(C(=O)CCn3ccnn3)C2)c(F)c2[nH]c(C(=O)N3Cc4cnn(CC)c4C3)cc12`, the IC50 in assay [3] and in assay [2] was less than 0.1 µM each time.

For the compound `COc1ccccc1-c1cc(C2=CCCN(C(=O)CCn3ccnn3)C2)c(F)c2[nH]c(C(=O)N3C[C@H](C)O[C@@H](C)C3)cc12`, the IC50 in assay [3] and in assay [2] was 0.1 to 1 µM each time.

Take `COc1cc(F)cnc1N1CCN(C(=O)c2cc3c(-c4ccccc4F)cc(C4=CCCN(C(=O)CCn5ccnn5)C4)c(F)c3[nH]2)CC1`: the IC50 in assay [3] and in assay [2] was less than 0.1 µM in each case.

The values above are taken from patent US20250214977A1, “STAT6 INHIBITORS AND USES THEREOF” (Kymera Therapeutics, Inc., priority 2024, published 2025).
